Experimental data: patent US20080009019A1, “HIGH THROUGHPUT METHOD FOR SCREENING CANDIDATE COMPOUNDS FOR BIOLOGICAL ACTIVITY” (SmithKline Beecham Corporation, priority 2001, published 2008)

Amino acid sequences for entries named in this document (tags omitted). Residues count along the entry.
UniProt P43220, 24-463: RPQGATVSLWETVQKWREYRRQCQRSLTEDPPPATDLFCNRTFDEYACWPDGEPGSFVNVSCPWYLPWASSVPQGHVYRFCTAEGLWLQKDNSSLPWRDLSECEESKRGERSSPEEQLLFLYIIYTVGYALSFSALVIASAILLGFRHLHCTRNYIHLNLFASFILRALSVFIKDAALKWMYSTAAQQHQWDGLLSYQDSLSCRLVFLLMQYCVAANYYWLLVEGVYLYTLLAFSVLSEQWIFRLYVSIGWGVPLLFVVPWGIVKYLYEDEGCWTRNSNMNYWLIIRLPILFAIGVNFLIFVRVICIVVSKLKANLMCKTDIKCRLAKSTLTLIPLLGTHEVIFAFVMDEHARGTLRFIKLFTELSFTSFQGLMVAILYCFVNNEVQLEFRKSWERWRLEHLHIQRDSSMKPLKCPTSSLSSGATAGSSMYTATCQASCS

Target: human glucagon-like peptide-1 (GLP-1) receptor (Homo sapiens, UniProt P43220)
Test: Agarose lawn reporter assay, CHO-6xCRE-luc+ cells expressing GLP-1 receptor
Assay type: cell-based
Settings: approximately 10 nl of 5×10^−4 M to 1.5×10^−6 M peptide solution on lawn by HDR pin tool; 4 hours at 37° C.; FIGS. 6A-6B

Substance: glucagon-like peptide-1 [GLP-1]
- concentration-response curve of luminescence activity: concentration-response curve of luminescence activity was only observed when peptide was applied to the cell line expressing the appropriate receptor
